# Literature values in patent US20090134028A1, “Method of Estimating Effect of Test Chemical on Living Organisms” (Chemicals Evaluation and Research Institute, priority 2005, published 2009).
# Where two headings read alike, the source gives them in different places.
# Settings: known carcinogenicity of chemical, cited from earlier work
smiles,measurement,setting,value
CN(N=O)C(=N)N[N+](=O)[O-],Carcinogenicity,Tables 1 to 3,+
same,Carcinogenicity,Tables 8 to 11,+
